Assay results from patent publication USRE48599E1, “Compositions comprising TLIA-Ig fusion protein for the regulation of T regulatory cells, and methods for their use” (University of Miami, priority 2013, dated 2021).

Test system: FoxP3+CD4+ Treg cells
Test: Combination of TNFRSF25 agonist and IL-2: Treg expansion in peripheral blood
Format: in vivo, wild type mice
Experimental: In a first set of experiments, wild type mice were treated with low-dose IL-2 (300,000 units/m^2), control (IgG), TL1A-Ig (0.5 mg/kg), or a combination treatment with TL1A-Ig and a single injection of very low-dose IL-2 (30,000 units/m^2) or with a combination treatment with TL1A-Ig and a single injection of low dose IL-2 (300,000 units/m^2). The frequency of CD4+FoxP3+ cells out of total CD4+ cells was monitored in the peripheral blood on the indicated days.
In a second set of experiments, wild type mice were treated with low-dose IL-2 (300,000 units/m2), control (IgG), 4C12 antibody (0.4 mg/kg), or with a combination treatment with 4C12 antibody and a single injection of low dose IL-2 (300,000 units/m2). The frequency of CD4+ FoxP3+ cells out of total CD4+ cells was monitored in the peripheral blood on the indicated days.

Low dose IL-2: interleukin-2, low dose 300,000 units/m^2
less than 20%: percentage of FoxP3+ Treg cells (out of total CD4+ cells) (5 days post-treatment, peripheral blood, FIG. 16) | frequency of Treg cells (6 days after treatment, peripheral blood, FIG. 16) | frequency of Treg cells, of all CD4+ CD3+ peripheral blood cells (Six days after treatment, FIG. 17)
